From paper PMC4188581, “Break CDK2/Cyclin E1 Interface Allosterically with Small Peptides” (PLoS ONE, 2014)
pKd: −log10 of the molar value.

Biological target: CDK2 (Homo sapiens, UniProt P24941)
Assay: Surface Plasmon Resonance (SPR) peptide binding assay
Conditions: for pKd: without ATP

| Structure (SMILES) | pKd | Ka1 (with 60 µM ATP, two-state model) [M⁻¹ s⁻¹] |
| --- | --- | --- |
| CC(C)C[C@H](NC(=O)[C@H](C)NC(=O)[C@H](C)NC(=O)[C@@H](N)CC(=O)O)C(=O)N[C@H](C(=O)O)[C@@H](C)O [DAALT, NH2-D-A-A-L-T-OH] | 6.33 |  |
| CC(C)C[C@H](NC(=O)[C@H](C)NC(=O)[C@H](C)NC(=O)[C@@H](N)[C@@H](C)O)C(=O)N[C@@H](CO)C(=O)O [TAALS, reference compound] | 5.85 |  |
| CC(C)C[C@H](NC(=O)[C@H](C)NC(=O)[C@H](C)NC(=O)[C@@H](N)Cc1ccc(O)cc1)C(=O)N[C@@H](CCC(N)=O)C(=O)O [YAALQ, NH2-Y-A-A-L-Q-OH] | 4.01 | 100.9 ± 1.5 |
